# B1: conventional peptide hydroxamate based on Phe-Arg-Trp-Glu, all L-amino acids (peptide)
# peptide: FRWE
# modifications: hydroxamic acid moiety attached to the N-terminus, positioned by the inclusion of an α carbonyl moiety; all L-amino acids
# Molecular target: insulin-degrading enzyme (recombinant human IDE) (human) (UniProt P14735)
# Assay: enzyme inhibition assay (Ki); recombinant human IDE (nominal 1 nM); dose-response of the hydrolysis of IDE substrates (FRET1, SP1, FAβB, 125I-insulin, or insulin by HTRF); the substrate used for the Ki values in the text is not stated
binder,measurement,value
B1,Ki,110 nM

# — PMC2866327, “Designed Inhibitors of Insulin-Degrading Enzyme Regulate the Catabolism and Activity of Insulin” (PLoS ONE, 2010)
